The values below come from patent publication US9506926B2, “Molecular predictors of therapeutic response to specific anti-cancer agents” (The Regents of the University of California, priority 2011, dated 2016).

The test system of this assay is breast cancer cell lines. The assay is described as follows: Cell growth inhibition assay (Cell Titer Glo, 72 h drug exposure, GI50) across a breast cancer cell line panel, with subtype, copy number and growth rate association analysis. It is filed as cell-based, human. The conditions noted are these: compounds excluded from further analysis.

Take cetuximab: the “Response of the cell line panel as a whole” value was “almost none of the cell lines in the panel responded strongly”.
